Assay results from US20060058383A1 (priority 2004, published 2006).

Assay: Animal studies, toxicity in mice
Details: 5 mg/kg, i.v. daily for 5 days

For `CCOC(=O)C(=O)CBr`, the toxicity in mice was “No obvious toxicity”.
